The values that follow are results of earlier work, collected in patent publication US12673052B2, “Combinations for the treatment of cancer” (Exelixis, Inc., priority 2020, dated 2026).

For the series the following is noted: in vivo, iv; cited from earlier work.

Regarding “bempegaldesleukin: recombinant human IL-2 conjugated with an average of six releasable chains of polyethylene glycol; CD122-preferential IL-2 pathway agonist”, the “time of peak plasma concentration of active bempegaldesleukin-related species (2-PEG-IL-2 and 1-PEG-IL-2)” value is 24 to 48 h.
